According to ChEMBL document CHEMBL5726477, “Substituted polycyclic carbamoyl pyridone derivative prodrug” (2019):

test: cells; assay type: cell-based; conditions: MDCK

Structure (SMILES)	IC50
CC(C)N1CN(C2c3ccccc3CCc3ccccc32)n2cc(C(=O)O)c(=O)c(OCc3ccccc3)c2C1=O	36 nM
CCOC(=O)c1cccc(Cl)c1CSc1ccc(F)cc1	44 nM
CC(CO[Si](C)(C)C(C)(C)C)N1CN(C(=O)OC(C)(C)C)n2ccc(=O)c(OCc3ccccc3)c2C1=O (centres undefined)	117 nM
COC(=O)c1cn([C@H](CNC(=O)OC(C)(C)C)C2c3ccccc3CSc3ccccc32)c(C(=O)OC)c(OCc2ccccc2)c1=O (some centres undefined)	73 nM
CC(C)(C)[Si](C)(C)OCC1Nn2ccc(=O)c(OCc3ccccc3)c2C(=O)N1CCOC(=O)c1ccccc1 (centres undefined)	65 nM
COC(=O)c1c(OCc2ccccc2)c(=O)c(C)cn1C(CNC(=O)OC(C)(C)C)C1c2ccccc2CCc2ccccc21 (centres undefined)	49 nM
CC(C)N1C(=O)c2c(OCc3ccccc3)c(=O)ccn2NC1CO[Si](C)(C)C(C)(C)C (centres undefined)	32 nM
CC(C)N1C(=O)c2c(O)c(=O)ccn2N(C2c3ccccc3CCc3ccccc32)C1CN1C(=O)c2ccccc2C1=O (centres undefined)	98 nM
COCCN1CN(C(c2ccccc2)c2ccccc2)n2c(CC#N)cc(=O)c(OCc3ccccc3)c2C1=O	233 nM
N#CCN1CC(C2c3ccccc3CCc3ccccc32)n2ccc(=O)c(OCc3ccccc3)c2C1=O (centres undefined)	55 nM
COC[C@H](C)N1C(=O)c2c(OCc3ccccc3)c(=O)ccn2NC1CO[Si](C)(C)C(C)(C)C (some centres undefined)	23 nM
NN1CC(C2c3ccccc3CCc3ccccc32)n2ccc(=O)c(OCc3ccccc3)c2C1=O (centres undefined)	65 nM
COCCN1C[C@H](C(c2ccccc2)c2ccccc2)n2cc(Br)c(=O)c(O)c2C1=O	114 nM
O=C(OCc1cccc2c1SCc1ccccc1C2O)c1ccccc1 (centres undefined)	65 nM
COCCC1Nn2ccc(=O)c(OCc3ccccc3)c2C(=O)N1CCO[Si](C)(C)C(C)(C)C (centres undefined)	230 nM
CC(=O)OCCN1C(=O)c2c(O)c(=O)ccn2N(C2c3ccccc3CCc3ccccc32)C1CN1C(=O)c2ccccc2C1O (centres undefined)	76 nM
C[C@@H](N1CN([C@@H]2c3ccccc3SCc3c2cccc3C(F)(F)F)n2ccc(=O)c(OCc3ccccc3)c2C1=O)C(F)(F)F	29 nM
CN1CC(C2c3ccccc3CCc3ccccc32)n2ccc(=O)c(OCc3ccccc3)c2C1=O (centres undefined)	88 nM
O=C1c2c(OCc3ccccc3)c(=O)ccn2N(C2c3ccccc3CCc3ccccc32)CN1CCN1C(=O)c2ccccc2C1=O	88 nM
